# Measured values as given in patent US20220249615A1.
# Target: GLP-1R
# Assay: cell-based or functional assay
Sequence,"% vs. Experimental group, CHO/GLP-1R bioassay","EC50, in vitro activity - CHO/GLP-1R bioassay",in vitro potency relative to the isomer linked at another position of the Fc
CA Exendin (lysine)-PEG-(lysine) Fc (from UniProt P26349),16.1%,0.591 µg/mL,–
CA Exendin (lysine)-PEG-(N-terminus) Fc (from UniProt P26349),100%,0.0953 µg/mL,6 times
